Earlier results in US20250160636A1, “Mitigating Ocular Toxicity” (GlaxoSmithKline Intellectual Property Development Limited, priority 2022, published 2025).

Settings: at the recommended dosages

belantamab mafodotin [BLENREP®]
Side effect indicated by current U.S. Prescribing Information: ocular toxicity is a known side effect
